The text below walks through data of patent publication US20240366505A1, “Liquid Resin Extended-Release Oral Naltrexone Formulation for Treating Autism-Related Disorders” (AARDVARK THERAPEUTICS, INC., priority 2022, published 2024).

Data set [1] is described as follows: Single administration of 50 mg REVIA tablets to 36 healthy adult male volunteers (ANDA #075434). The following applies: single 50 mg REVIA tablet.
The conditions of data set [2]: cited from earlier work.

For the compound `Oc1ccc2c3c1O[C@H]1[C@H](O)CC[C@@]4(O)[C@@H](C2)N(CC2CC2)CC[C@]314` [6-β-naltrexol], the “systemic exposure relative to naltrexone” value in data set [1] is recorded as “over 10 fold”. Moreover, in data set [2] (after 100 mg daily doses), the accumulation result was “do not accumulate”. Further, the mean elimination half-life entry in data set [2] (immediate release oral) is recorded as “up to 13 hours”. For the same compound, the “dose proportionality of AUC and Cmax” value in data set [2] (over the range of 50-200 mg) is listed as “dose-proportional”.
